Biological target: Orexin receptor type 2 (Homo sapiens, UniProt O43614)
Assay: Binding affinity to orexin receptor 2 (unknown origin)

Chains of the proteins cited; added tags and fusions are not shown.
UniProt O43614, whole entry: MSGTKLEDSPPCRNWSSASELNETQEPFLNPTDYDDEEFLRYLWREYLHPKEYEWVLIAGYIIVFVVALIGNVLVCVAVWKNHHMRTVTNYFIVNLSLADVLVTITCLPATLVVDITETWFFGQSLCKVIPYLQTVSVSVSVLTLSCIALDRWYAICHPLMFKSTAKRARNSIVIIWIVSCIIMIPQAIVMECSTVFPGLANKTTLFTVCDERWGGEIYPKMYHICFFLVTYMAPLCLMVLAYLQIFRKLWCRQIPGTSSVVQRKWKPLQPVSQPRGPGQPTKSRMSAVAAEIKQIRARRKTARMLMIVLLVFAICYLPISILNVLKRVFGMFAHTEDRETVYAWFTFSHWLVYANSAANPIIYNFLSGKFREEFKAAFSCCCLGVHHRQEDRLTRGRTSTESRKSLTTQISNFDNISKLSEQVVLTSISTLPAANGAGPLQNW

- IC50: 417 nM
SMILES: COc1ccc(C[C@H]2c3cc(OC)c(OC)cc3CCN2[C@@H](C(=O)NC(C)C)c2ccccc2)cc1OC
